Measurements taken from patent publication US20160213692A1, “ADVANCED METHOD OF TREATMENT AND MANAGEMENT OF CHRONIC HEPATITIS C INFECTION” (priority 2015, published 2016).

What was measured:
[1] = tested on: male Wistar rats; settings: rat, in vivo
Procedure: (§1) A total of 80 male Wistar rats weighing 250-300 gm were used. All animals received humane care during the study protocol and during sacrifice.
(§2) The study duration was 5 weeks. Peg-INF-α-2a was prepared by diluting the content of a full syringe (180 μg/0.5 ml) in 9.5 ml sterile normal saline to prepare a final volume of 10 ml and the final concentration was 18 μg/ml. Each rat in the ‘P’, ‘PD’, ‘PR’ and ‘PRD’ groups received a weekly subcutaneous injection of 0.33 ml (6 μg/rat) for a total of 4 injections. The drug was prepared fresh on the day of use. […] Cholecalciferol ([…]) was prepared by adding 4 ml to 16 ml saline every morning to form a final concentration of 1000 IU/mL. Each rat in the ‘PD’, ‘PRD’, ‘PR’ and ‘VitD’ groups received 0.5 ml/day (500 IU/day) for the full study duration. Cholecalciferol, and its dose, was chosen over calcitriol, the hormonal form of vitamin D, to avoid the risk of soft tissue calcification (Salum et al, 2012). Following 4 injections, the rats were sacrificed in the fifth week at the time of the 5th injection would have been given. RBV and vitamin D3 were continued till the day before sacrifice.
(§3) All Rats were sacrificed on the same day under anesthesia using diethyl ether (Fisher Scientific UK Ltd, Loughborough, UK) a week after the last injection. 1 ml of blood was collected on EDTA for CBC and 3 ml of blood were collected in plane tube immediately after cutting the vena cava. Blood samples in plane tubes were centrifuged and the serum was stored in −20° C. for routine biochemistry and to measure serum concentrations of 25-OH vitamin D and EPO.
The quantitative measurement of serum liver enzymes (ALP, ALT and AST), total and indirect bilirubin, creatinine and urea was done using Cobas e411 (Roche Diagnostics International Ltd, Switzerland) according to the manufacturer protocol.

[2] = rat, in vivo
Procedure: as §1, §2
All Rats were sacrificed on the same day under anesthesia using diethyl ether (Fisher Scientific UK Ltd, Loughborough, UK) a week after the last injection. […]

[3] = tested on: male Wistar rats; experiment: Haematological profile / erythrocyte indices (Sysmex XS 500) of treated rats
Procedure: as §1, §2, §3
Whole blood samples (1 ml) collected on EDTA were processed on Sysmex XS 500 (Sysmex, IL, USA) for the measurement of hemoglobin concentrations, RBCs count, packed cell volume (PCV), mean corpuscular volume (MCV), mean corpuscular hemoglobin (MCH) an mean corpuscular hemoglobin concentration (MCHC).

Pegylated interferon-α-2a [P Group]
ALP [1]: 125.7 ± 9.7 IU/L
ALT [1]: 71.2 ± 6.7 U/L
AST [1]: 81.8 ± 7.3 U/L
Creatinine [1]: 0.2 ± 0.08 mg/dL
Total Bilirubin [1]: 0.48 ± 0.16 mg/dL
Urea [1]: 52.3 ± 4^ mg/dL
25-OH Vitamin D [2]: 39.6 ± 6.7 ng/mL
effect on erythrocyte parameters compared to Control group ([3]; male Wistar rats, 5 weeks, p>0.05): did not affect
Hb ([3]; rat, in vivo): 14.7 ± 0.4 g/dL
MCH ([3]; rat, in vivo): 17.8 ± 0.9 pg
MCHC ([3]; rat, in vivo): 33.8 ± 0.5 pg/dL
MCV ([3]; rat, in vivo): 62.7 ± 3.3 fL
PCV ([3]; rat, in vivo): 42.3 ± 3.1%
RBCs ([3]; rat, in vivo): 8.5 ± 0.8 ×10^6/μl
